Values quoted from earlier work, collected in patent publication US20040176357A1, “2 Methyl-thieno-benzodiazepine lyophilized formulation” (priority 2001, published 2004).

System: serotonin 5-HT2A/2B/2C, 5-HT3, 5-HT6, dopamine D1/D2/D3/D4/D5, muscarininic cholinergic (m1-m5), alphal-adrenergic, and histamine H1 receptors
Details: all listed receptors; cited from earlier work

In the case of Cc1cc2c(s1)Nc1ccccc1N=C2N1CCN(C)CC1 [olanzapine, 2-methyl-4-(4-methyl-1-piperazinyl)-10H-thieno[2,3-b][1,5]benzodiazepine], the “receptor affinity in vitro” value is listed as “nanomolar receptor affinity”.
